The values below come from ChEMBL document CHEMBL4028858, “Structural Biology-Inspired Discovery of Novel KRAS-PDEδ Inhibitors” (J Med Chem, 2017).

The chains behind the UniProt entries cited, without tags or fusion partners. Where a name states a change or a piece, a line headed by the entry shows the natural chain unless it says otherwise.
UniProt O43924: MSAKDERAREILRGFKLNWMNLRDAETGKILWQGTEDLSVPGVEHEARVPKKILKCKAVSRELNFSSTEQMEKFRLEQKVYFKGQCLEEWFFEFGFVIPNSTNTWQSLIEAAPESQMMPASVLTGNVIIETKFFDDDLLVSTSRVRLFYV

In the assay the target is Retinal rod rhodopsin-sensitive cGMP 3',5'-cyclic phosphodiesterase subunit delta (Homo sapiens, UniProt O43924).

The structures appear in SMILES notation.

`c1ccc(Cn2c(-c3ccc(OC[C@H](C4CCNCC4)n4c(-c5ccccc5)nc5ccccc54)cc3)nc3ccccc32)cc1` gave a Kd of 24 nM.

Usually Kd stands for the concentration at which binding is half-saturated.
